The assay concerns the target human P2X3 receptor (Homo sapiens (Human), UniProt P56373). Kind of assay: Evaluation of human P2X3 receptor inhibitory activity (Fluo-3 calcium fluorescence, FDSS 3000, ATP stimulation).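 Also: stimulus was 50 nM ATP with fluorescence followed for 3 min, and the response per well was peak post-ATP fluorescence divided by the reading at measurement start.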 The format is cell-based.
[1] abbreviates: C6BU-1 cells stably expressing human P2X3 receptor.

Protein sequences, listed by entry. Tags and fused reporters are not part of them. Lines headed by an entry give the natural chain unless they say otherwise; changes in a name come on top.
UniProt P56373: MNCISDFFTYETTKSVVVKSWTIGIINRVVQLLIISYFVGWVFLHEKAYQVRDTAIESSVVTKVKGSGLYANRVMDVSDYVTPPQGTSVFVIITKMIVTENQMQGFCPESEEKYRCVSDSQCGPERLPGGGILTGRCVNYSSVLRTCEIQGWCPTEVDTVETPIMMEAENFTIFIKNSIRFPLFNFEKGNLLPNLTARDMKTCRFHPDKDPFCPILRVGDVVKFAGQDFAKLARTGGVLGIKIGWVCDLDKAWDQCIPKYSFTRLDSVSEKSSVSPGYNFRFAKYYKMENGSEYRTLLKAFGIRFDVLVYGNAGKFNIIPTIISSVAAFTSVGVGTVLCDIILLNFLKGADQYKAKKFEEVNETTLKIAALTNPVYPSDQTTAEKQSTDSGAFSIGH

The structures appear in SMILES notation. Like-named read-outs stand apart in the source and are kept apart here.

One may read the IC50 as the concentration at which inhibition is half-maximal. In the case of `COC(=O)[C@@H](C)Cn1c(=O)[nH]/c(=N\c2ccc(Oc3ccc(C)nc3)cc2)n(Cc2ccc(C)cc2)c1=O` [Compound I-1209], under setting [1], the IC50 worked out at 6 nM.
For the molecule `Cc1ccc(Cn2c(=O)n(C[C@H](C)C(=O)O)c(=O)[nH]/c2=N\c2ccc(Oc3ccc(C)nc3)cc2)cc1` [Compound I-1232], the IC50 under setting [1] is 5 nM.
For `CCn1c(=O)[nH]/c(=N\c2ccc(Oc3cnc(C(=O)O)cn3)cc2)n(Cc2ccc(C)cc2)c1=O` [Compound I-2384], the IC50 amounted to 5 nM.
